miR122 inh = inhibitors of miR-122 in Huh7 cells; AID 602342; Huh7 miR-122 Renilla luciferase sensor, 48 h; neutral wells = 0, positive control = 100; activation (reporter increase), % at 12.5 µM; hit rate 0.3% among 340,000;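 active means mean replicate activation score at least 90 and every replicate individually at or above 90; inconclusive means only one of the two criteria met; inactive means neither criterion met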;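 further: higher luciferase means less miR-122 activity so hits act as miR-122 inhibitors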
Cneo AK release = causes C. neoformans cell lysis; adenylate kinase release luminescence, 4 h; normalised: neutral wells 0, clomiphene wells 100; lysis activity, % at 15 µM; hit rate 0.2% among 360,000;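 active means mean lysis activity across replicates of at least 80%, whatever share of replicates individually reach that level; inactive means mean lysis activity below 80%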
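Test system: log-phase Cryptococcus neoformans yeast cells; Quantity: yeast cell density of 5 × 10^6 cells/mL; Buffer or medium: YPD; Doses: single compound concentration per well; Timing: 4 h at 37 °C static, read 1 h later; Measured by: AK luminescence; Read-out basis: lysis from increased AK signal; Control set: Clomiphene as positive control.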
C2C12 statin = protects C2C12 myotubes from simvastatin toxicity. ATP luminescence, 48 h; scaled: DMSO 0, geranylgeraniol control 100. hit rate 0.78% among 330,000. rescue of ATP level, % at 7.49 µM;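 active means mean ATP rescue above about 67%, or every replicate alone reaching that limit, limit read from the data, passing the limit was not always enough; inconclusive means no clear call, values can overlap the other calls; inactive means mean under the limit and some replicate under it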;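 further: myotubes were challenged with 10 µM simvastatin during compound exposure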
N-glyco inh = N-linked glycosylation inhibition. D54 ERlucT glycosylation luciferase reporter, 24 h; percent of 100 nM tunicamycin response. reporter increase, % at 12.5 µM. hit rate 0.23% among 360,000;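 active means mean luciferase reporter signal, scaled so untreated is 0 and the glycosylation-blocking control 100, at or above a set limit in every replicate; inconclusive means mean reaches the limit but not every replicate does; inactive means mean below the limit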;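 further: luciferase carries N-glycosylation sites so blocking glycosylation raises the light; 0% = median of neutral control wells and 100% = median of 100 nM tunicamycin wells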
UUG fidelity = yeast start codon fidelity modulation; AID 602363; activity score, % at 18.7 µM; S. cerevisiae UUG-firefly luciferase reporter, luminescence/redox ratio; 0.13% of 350,000 active;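 active means replicate mean at a twofold rise or more, about +100% in these data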;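 further: firefly luciferase made from a UUG start codon reports start codon fidelity; reporter light over untreated wells divided by growth signal over untreated wells; some hits fall short of that in this replicate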
Starred values were filed as active, the others as inactive; ? = inconclusive; nt = no result given; [ ] = another dose, or the depositor's remark. Hits are enriched below; roughly 1.2% of the tested compounds scored in any of these assays.

Letter code: A = miR122 inh; B = Cneo AK release; C = C2C12 statin; D = N-glyco inh; E = UUG fidelity
compound: C[C@@H]1CCCCO[C@@H](CN(C)C(=O)C2CCCCC2)[C@@H](C)CN([C@@H](C)CO)C(=O)c2cc(NC(=O)CCCN(C)C)ccc2O1
  A: 4.5[16.7 µM]; B: 3.7; C: 30.9; D: nt; E: 14.2

compound: CCOC(=O)C(Cc1ccccc1)C(=O)Nc1ccc(NC(=O)C(Cc2ccccc2)C(=O)OCC)cc1 (stereo not drawn)
  A: -1.8; B: -3.3; C: nt; D: 0.8; E: 7.0

compound: CCOC(=O)C(Cc1ccccc1)C(=O)Nc1nccs1 (stereo not drawn)
  A: -4.9; B: 1.7; C: 99.1*; D: 0.7; E: -8.6

compound: O=C(Cc1ccccn1)N[C@@H]1CC[C@@H](CCNC(=O)c2cc(Cl)cc(Cl)c2)O[C@H]1CO
  A: 0.1[16.7 µM]; B: 1.4; C: -25.7; D: nt; E: 6.2

compound: O=C(CNC(=O)c1ccc(Br)cc1)N/N=C/c1cccnc1
  A: 1.4; B: -0.6; C: 109.1*; D: 2.2; E: -9.6

compound: Cc1ccc(C2=NOC3(CC(=O)N(c4ccccc4)C3=O)C2)cc1 (stereo not drawn)
  A: 1.1; B: -2.8; C: 75.8*; D: 0.4; E: -14.7

compound: COc1ccc(S(=O)(=O)N2c3cc(C)ccc3OCC2C(C)(C)C)cc1 (stereo not drawn)
  A: 151.4*; B: -1.2; C: -51.4; D: 5.8; E: -23.7

compound: CO[C@H]1CN(C)C(=O)c2cc(NC(C)=O)ccc2OC[C@H](C)N(C(=O)C2CCC2)C[C@@H]1C
  A: 0.4[16.7 µM]; B: 0.3; C: 3.5; D: nt; E: -10.1

compound: C=CCn1c(SCC(=O)NC2CCCC2)nc2scc(-c3ccco3)c2c1=O
  A: -6.0; B: 5.1; C: 116.4*; D: 0.0; E: -6.6

compound: C=CCn1c(SCC(=O)NCCCC)nc2scc(-c3ccco3)c2c1=O
  A: 0.4; B: -1.1; C: nt; D: 1.9; E: -5.1

compound: O=C(Nc1ccc(Cl)cc1)NC1(C(=O)NCCCN2CCOCC2)CCCCC1
  A: -1.9; B: -1.1; C: 3.3; D: -0.2; E: -1.5

compound: O=C(Nc1ccccc1)NC1(C(=O)NCCCN2CCOCC2)CCCCC1
  A: -5.4; B: 0.7; C: 101.9*; D: 0.4; E: -13.0

compound: CC(C)NC(=O)Nc1ccc2c(c1)CC(=O)N([C@@H](C)CO)C[C@H](C)[C@H](CN(C)C(=O)Nc1ccc3c(c1)OCO3)O2
  A: 6.3[16.7 µM]; B: -1.2; C: -8.9; D: nt; E: 5.9

compound: CC(C)NC(=O)N1CC[C@@H]2[C@@H](CO)N(C)c3ccc(-c4cccc(F)c4)cc3[C@@H]21
  A: ?; B: 92.4*; C: 3.1; D: nt; E: 53.6

compound: CCC(=O)N1CC[C@@H]2[C@H]1c1cc(-c3cccc(OC)c3)ccc1N(C)[C@@H]2CO
  A: -3.7[16.7 µM]; B: 1.2; C: -3.1; D: nt; E: -3.4

compound: COc1cccc(-c2ccc3c(c2)[C@H]2[C@H](CCN2C(=O)Cc2ccncc2)[C@H](CO)N3C)c1
  A: 5.7[16.7 µM]; B: 90.9*; C: -6.5; D: nt; E: -15.7

compound: Cc1noc(C)c1NC(=O)Nc1ccc2c(c1)C(=O)N([C@H](C)CO)C[C@@H](C)[C@H](CN(C)C(=O)Nc1cccc3ccccc13)O2
  A: -1.4[16.7 µM]; B: -2.4; C: ?; D: nt; E: -9.0

compound: O=S(=O)(/N=C(/Nc1ccc(Cl)c(S(=O)(=O)N2CCOCC2)c1)c1ccc(F)cc1)c1ccccc1
  A: 120.8*; B: -5.2; C: -15.5; D: -0.5; E: 6.2

compound: O=C(Nc1ccccc1)Nc1ccc(Cl)c(S(=O)(=O)N2CCOCC2)c1
  A: -2.9; B: -1.8; C: -5.4; D: -6.1; E: -0.1

compound: COc1cccc(NS(=O)(=O)c2ccc3c(c2)CCN3C(C)=O)c1
  A: nt; B: -1.0; C: -1.7; D: 0.5; E: -17.1

compound: CC(=O)N1CCc2cc(S(=O)(=O)Nc3cccc(C(F)(F)F)c3)ccc21
  A: 99.7*; B: 2.8; C: 14.0; D: -1.5; E: 1.9

compound: CC(=O)N1CCc2cc(S(=O)(=O)Nc3ccc(C)cc3)ccc21
  A: 28.7; B: 3.9; C: -9.5; D: 0.4; E: -18.8

compound: CC(=O)N1CCCc2cc(S(=O)(=O)Nc3ccc4c(c3)OCO4)ccc21
  A: 268.0*; B: -4.2; C: 15.7; D: 1.0; E: -16.0

compound: C/C(Cn1nnc2ccccc21)=N\NC(=O)c1ccc(Br)cc1
  A: -2.0; B: nt; C: -9.1; D: 2.9; E: nt

compound: Cc1cc2c(cc1C)/C(=C\C(N)=O)NC(C)(C)C2
  A: 3.3; B: 1.7; C: 142.4*; D: 0.0; E: -0.2

An excerpt of these results, as labelled records:
Compound: COc1ccc(S(=O)(=O)N2c3cc(C)ccc3OCC2C(C)(C)C)cc1 (stereo not drawn)
  miR122 inh = 151.4*
  Cneo AK release = -1.2
  C2C12 statin = -51.4
  N-glyco inh = 5.8
  UUG fidelity = -23.7

Compound: O=C(Cc1ccccn1)N[C@@H]1CC[C@@H](CCNC(=O)c2cc(Cl)cc(Cl)c2)O[C@H]1CO
  miR122 inh = 0.1[16.7 µM]
  Cneo AK release = 1.4
  C2C12 statin = -25.7
  N-glyco inh = nt
  UUG fidelity = 6.2

Compound: Cc1ccc(C2=NOC3(CC(=O)N(c4ccccc4)C3=O)C2)cc1 (stereo not drawn)
  miR122 inh = 1.1
  Cneo AK release = -2.8
  C2C12 statin = 75.8*
  N-glyco inh = 0.4
  UUG fidelity = -14.7

Compound: COc1cccc(-c2ccc3c(c2)[C@H]2[C@H](CCN2C(=O)Cc2ccncc2)[C@H](CO)N3C)c1
  miR122 inh = 5.7[16.7 µM]
  Cneo AK release = 90.9*
  C2C12 statin = -6.5
  N-glyco inh = nt
  UUG fidelity = -15.7

Following part:
Letter code: A = miR122 inh; B = Cneo AK release; C = C2C12 statin; D = N-glyco inh; E = UUG fidelity
compound: CN1C(=O)c2cc(NC(=O)C3CCCC3)ccc2OC[C@@H]2O[C@H](CC(=O)NCC3CC3)CC[C@@H]21
  A: 26.0[16.7 µM]; B: -0.6; C: -20.4; D: nt; E: 15.0

compound: CCCCCCC(=O)N(O)C1CC(=O)N(Cc2ccccc2)C1=O (stereo not drawn)
  A: -29.8; B: -1.7; C: -13.7; D: 49.2*; E: 1.0

compound: C[C@H]1CN([C@@H](C)CO)S(=O)(=O)c2ccc(C#CC3CC3)cc2O[C@@H]1CN(C)C(=O)Cc1ccncc1
  A: 8.6[16.7 µM]; B: -1.2; C: -9.5; D: nt; E: -6.6

compound: COc1cc(/C=C2/C(=O)N(C)C(=S)N2C)ccc1OCc1cccc(F)c1
  A: -0.6; B: -2.7; C: -47.2; D: 34.1*; E: -19.2

compound: CO[C@@H](CN(C)Cc1ccc2c(c1)OCO2)[C@H](C)CN(C(=O)c1ccccc1)[C@@H](C)CO
  A: nt; B: -1.0; C: 5.3; D: nt; E: nt

compound: CO[C@@H](CN(C)Cc1ccc2c(c1)OCO2)[C@@H](C)CN(C(=O)c1ccccc1)[C@H](C)CO
  A: nt; B: 95.7*; C: 10.0; D: nt; E: nt

compound: CCC(C)(C)NC(=O)C(c1cccn1C)N(C(=O)Cn1nnc2ccccc21)c1ccc(OC)cc1OC (stereo not drawn)
  A: 91.7*; B: -1.8; C: 11.8; D: -0.7; E: 9.0

compound: COc1ccccc1CCNCc1ccc(OC)c(OCc2ccccc2)c1
  A: -8.1; B: 18.0; C: -38.0; D: 34.4*; E: 3.8

compound: C[C@H](CO)N1C[C@H](C)[C@H](CN(C)S(=O)(=O)c2ccccc2)Oc2ccc(NC(=O)Nc3ccc4c(c3)OCO4)cc2C1=O
  A: 2.8[16.7 µM]; B: 41.6; C: nt; D: nt; E: -4.9

compound: Cc1c(Cl)cccc1NC(=O)CCCn1cnc([N+](=O)[O-])n1
  A: 251.2*; B: -1.1; C: 11.5; D: 1.4; E: -2.2

compound: O=C(C(c1ccccc1)c1ccccc1)N1CCOCC1
  A: 213.5*; B: 0.9; C: -5.5; D: 2.5; E: -11.1

compound: O=C(CC(c1ccccc1)c1ccco1)N1CCOCC1 (stereo not drawn)
  A: 6.6; B: 0.7; C: 128.4*; D: 0.9; E: -9.7

compound: S=c1nc(-c2ccco2)[nH][nH]1
  A: 5.0; B: -5.1; C: 96.1*; D: 0.8; E: -7.2

compound: C[C@@H]1CN([C@@H](C)CO)C(=O)c2cc(/C=C/c3ccccc3)cnc2O[C@@H]1CN(C)S(=O)(=O)c1cn(C)cn1
  A: 0.9[16.7 µM]; B: -12.7; C: 8.5; D: nt; E: -4.7

compound: Cc1ccc(Cl)cc1NC(=O)Cn1cccc1
  A: -0.5; B: 2.7; C: 80.5*; D: -1.3; E: -9.0

compound: Cc1ccc(Cl)cc1NC(=O)CCC(=O)O
  A: nt; B: nt; C: nt; D: 1.7; E: nt

compound: Cc1ccc(/C(O)=C2\C(=O)C(=O)N(CCCN3CCOCC3)C2c2ccccc2F)cc1 (stereo not drawn)
  A: 12.2; B: 1.8; C: 4.4; D: 0.4; E: -23.8

compound: COc1ccccc1CNS(=O)(=O)c1cc(-c2cc(C)no2)ccc1C(C)C
  A: 106.9*; B: 2.6; C: 2.9; D: -4.1; E: -15.3

compound: COc1ccc(-c2cc(C)no2)cc1S(=O)(=O)NCC(C)c1ccccc1 (stereo not drawn)
  A: 148.2*; B: 0.0; C: -2.3; D: -1.9; E: -8.6

compound: Cc1ccc(NS(=O)(=O)c2cc(-c3cc(C)no3)ccc2C(C)C)nc1
  A: 99.1*; B: 0.5; C: 6.6; D: -1.1; E: 7.3

compound: CC(=O)N(C)C[C@@H]1[C@@H](c2ccc(-c3cccnc3)cc2)[C@H](CO)N1C(=O)C1CC1
  A: 258.3*[16.7 µM]; B: 9.4; C: -7.0; D: nt; E: 15.6

compound: CC(=O)N1[C@@H](CO)[C@H](c2ccc(-c3ccccc3)cc2)[C@@H]1CNC(=O)C1CC1
  A: 0.0[16.7 µM]; B: 95.1*; C: 10.5; D: nt; E: 1.4

Screening data as filed in PubChem BioAssay.
